Source: ChEMBL document CHEMBL1123569 (J Med Chem, 1987)

The chains behind the UniProt entries cited, without tags or fusion partners. Where a name states a change or a piece, a line headed by the entry shows the natural chain unless it says otherwise.
UniProt P00797: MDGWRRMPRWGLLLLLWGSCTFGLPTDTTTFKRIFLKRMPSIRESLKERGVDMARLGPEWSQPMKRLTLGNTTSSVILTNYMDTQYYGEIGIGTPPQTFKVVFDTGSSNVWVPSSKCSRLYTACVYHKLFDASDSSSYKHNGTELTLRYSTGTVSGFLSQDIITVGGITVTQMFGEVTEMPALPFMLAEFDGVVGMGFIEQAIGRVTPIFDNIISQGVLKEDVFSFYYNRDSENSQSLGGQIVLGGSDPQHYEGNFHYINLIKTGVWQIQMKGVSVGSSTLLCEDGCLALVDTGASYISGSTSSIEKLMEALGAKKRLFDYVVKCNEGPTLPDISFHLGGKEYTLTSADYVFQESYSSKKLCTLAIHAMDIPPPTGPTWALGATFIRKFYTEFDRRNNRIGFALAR

Biological target: Renin (Homo sapiens, UniProt P00797)
Experiment: Inhibition of human plasma renin
Assay type: cell-free
Procedure, shortened: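 Enriched human plasma renin preparation, substrate its own endogenous angiotensinogen (about 2×10^-6 M). Inhibitor added over a range of increasing concentrations. Angiotensin I released was quantified by RIA. With substrate held constant across the series, IC50 is treated as linearly proportional to Ki.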

IC50 [nM]	Structure (SMILES)
64.6	COC(=O)CC(O)[C@H](CC(C)C)NC(=O)[C@H](C)NC(=O)CC(O)[C@H](CC(C)C)NC(=O)[C@@H](NC(=O)[C@H](Cc1ccccc1)NC(=O)OC(C)(C)C)C(C)C (some centres not stated)
1410	COC(=O)C[C@H](O)[C@H](CC(C)C)NC(=O)[C@H](C)NC(=O)C[C@H](O)[C@H](CC(C)C)NC(=O)[C@H](CC(=O)Nc1ccccc1)NC(=O)[C@H](Cc1ccccc1)NC(=O)OC(C)(C)C
